From PubChem BioAssay AID504441 (Broad Institute, 2011)
This is a selection; strong and weak results do not stand in their true shares. Some structures show a salt or complex split into parts, the way the source records it. The source made the active and inactive calls. Rule as the data show it: active = inhibition above about 50%; inactive = the rest.

Each compound was assayed against Dual specificity tyrosine-phosphorylation-regulated kinase 1A (Rattus norvegicus) (UniProt Q63470) (assay: inhibition of Dyrk1A kinase activity – biochemical, single point, plate reader, primary screen (AID 504441;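 also: plate controls were vehicle with enzyme for no effect and no enzyme for full effect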)). Conditions: ADP-Glo luminescence, NFATc1 peptide, at 12.5 µM, active compounds read high.
In the case of `CCN(CC)CC(O)COC(=O)C(O)(c1ccccc1)C1CCCCC1` (configuration not stated), the inhibition is reported as inactive: 3.31%. In the case of `CCOC(=O)c1ccc(NP(C)(=O)Oc2ccc(Cl)cc2)cc1` (configuration not stated), the inhibition is reported as inactive: -5.88%. For `CP(=O)(OC12CC3CC(CC(C3)C1)C2)OC12CC3CC(CC(C3)C1)C2`, the inhibition was inactive: -1.5%. With `Cc1c(C(c2ccc3c(c2)OCO3)c2c(C)n(C)n(-c3ccccc3)c2=O)c(=O)n(-c2ccccc2)n1C.O=[N+]([O-])c1cc([N+](=O)[O-])c(O)c([N+](=O)[O-])c1` the inhibition was inactive: 4.72%. With `O=[N+]([O-])c1ccc(OP2(=O)COCCO2)cc1` (configuration not stated) the inhibition was inactive: -2.8%. In the case of `Cc1cc(-c2cccc3ccccc23)c(C)cn1.O=[N+]([O-])c1cc([N+](=O)[O-])c(O)c([N+](=O)[O-])c1`, the inhibition is reported as inactive: 6.21%. `O=[N+]([O-])c1cc([N+](=O)[O-])c(NCC2CCS(=O)(=O)C2)c([N+](=O)[O-])c1` (configuration not stated) was tested, and the inhibition was inactive: -3.15%. `CN(C)CCOC(=O)C(O)(c1ccccc1)C1CCCCC1` (configuration not stated) was tested, and the inhibition was inactive: -1.48%. For `COc1ccc(NP(C)(=O)Oc2ccccc2OC)cc1` (configuration not stated), the inhibition was inactive: 0.0394%. `COc1ccc(OP(C)(=O)Nc2cccc(Br)c2)cc1` (configuration not stated) was tested, and the inhibition was inactive: 3.23%. For `Cc1ccccc1NP(C)(=O)Nc1ccccc1C`, the inhibition was inactive: -0.104%. With `CP(=O)(Nc1ccc2c(c1)OCCO2)Oc1ccccc1` (configuration not stated) the inhibition was inactive: 7.35%. `CCOP(C)(=S)SCC(=O)NC(C)(CC)C(=O)O` (configuration not stated) was tested, and the inhibition was inactive: -7.81%. `CP(=O)(Nc1ccc(SC(F)(F)F)cc1)Oc1ccc(F)cc1` (configuration not stated) was tested, and the inhibition was inactive: -1.45%. `COc1ccc2c(c1O)-c1c(O)c(OC)cc3c1[C@H](C2)[N+](C)(C)CC3.O=[N+]([O-])c1cc([N+](=O)[O-])c([O-])c([N+](=O)[O-])c1[O-]` was tested, and the inhibition was inactive: 1.34%. With `O=C(OC1CN2CCC1CC2)c1ccc([N+](=O)[O-])cc1` (configuration not stated) the inhibition was inactive: -0.654%. With `CC(C)c1ccc(OP(C)(=O)Nc2ccc(SC(F)(F)F)cc2)cc1` (configuration not stated) the inhibition was inactive: -0.963%. In the case of `CP(=O)(Nc1ccccc1)Oc1ccc(F)cc1` (configuration not stated), the inhibition is reported as inactive: 2.52%. In the case of `O=[N+]([O-])c1cc([N+](=O)[O-])c(OC2CCCCC2O)c([N+](=O)[O-])c1` (configuration not stated), the inhibition is reported as inactive: 7.37%. `CCN(CC)CCCOC(=O)C(O)(c1ccccc1)C1CCCCC1` (configuration not stated) was tested, and the inhibition was inactive: 0.306%. In the case of `CCOC(=O)c1ccc(NP(C)(=O)Oc2ccc(F)cc2)cc1` (configuration not stated), the inhibition is reported as inactive: -5.02%. With `COc1ccc(OP(C)(=O)Nc2ccc(SC(F)(F)F)cc2)cc1` (configuration not stated) the inhibition was inactive: -0.00611%.
